Data: PubChem BioAssay AID602363 (Broad Institute, 2012)
Where “and” joins values, the source holds several entries; their conditions need not be identical. Equal values may be shown once. In all, about 350,000 compounds went through this assay and about 450 (0.13%) were called active. This is one part of a sample in which actives are shown more often than they occur.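 Rule for the calls: active = replicate mean at a twofold rise or more (about +100% in these data); inactive = the rest.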 More than one record can exist for a structure, and the calls need not agree.

Assay: modulators of yeast start codon fidelity, primary screen, whole organism, S. cerevisiae, single point, plate reader (AID 602363);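 note: firefly luciferase made from a UUG start codon reports start codon fidelity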
Conditions: S. cerevisiae UUG-firefly luciferase reporter, luminescence/redox ratio; at 18.7 µM; stronger effect = higher value

| Structure (SMILES) | activity score |
| --- | --- |
| C[C@@H]1CN([C@H](C)CO)C(=O)c2cc(C#CC3CCCC3)cnc2O[C@H]1CN(C)C(=O)C1CC1 | -6.27% (inactive) |
| C[C@@H]1CN([C@H](C)CO)C(=O)Cc2cc(NS(=O)(=O)c3ccc(Cl)cc3)ccc2O[C@H]1CN(C)S(=O)(=O)c1cccs1 | -8.01% (inactive) |
| O=C(Cc1ccncc1)NCC[C@@H]1CC[C@H](NC(=O)Nc2ccc(Cl)cc2)[C@@H](CO)O1 | 34.2% (inactive) |
| CC1CCN(C(=O)/C(=C\c2ccccc2)NC(=O)c2ccccc2)CC1 | -8.7% (inactive) |
| Cc1ccc(C(=O)N/C(=C\c2cn(C)c3ccccc23)C(=O)N2CCN(C)CC2)cc1 | 0.501% (inactive) |
| CN1CCN(C(=O)/C(=C\c2cccs2)NC(=O)c2cccs2)CC1 | 0.022% (active) |
| CCNC(=O)C[C@@H]1CC[C@@H]2[C@H](COc3ccc(NS(=O)(=O)c4ccccc4C)cc3C(=O)N2C)O1 | -8.72% (inactive) |
| O=C(C[C@@H]1C=C[C@H](NC(=O)c2ccc3c(c2)OCO3)[C@H](CO)O1)NCc1ccc(Oc2ccccc2)cc1 | 8.13% (inactive) |
| Cc1noc(C)c1S(=O)(=O)N(C)C[C@@H]1OCCCC[C@H](C)Oc2ccc(NC(=O)NC(C)C)cc2C(=O)N([C@H](C)CO)C[C@@H]1C | 27% (inactive) |
| CC(C)C#Cc1cnc2c(c1)C(=O)N([C@@H](C)CO)C[C@@H](C)[C@@H](CN(C)C(=O)c1cccc(F)c1)O2 | 0.693% (inactive) |
| C[C@@H]1CCCCO[C@@H](CN(C)C(=O)C2CCCCC2)[C@H](C)CN([C@H](C)CO)C(=O)c2cc(NC(=O)CCC(F)(F)F)ccc2O1 | 21.1% (inactive) |
| COc1ccccc1CNC(=O)C[C@@H]1CC[C@H](NC(=O)CN(C)C)[C@@H](CO)O1 | -14.1% (inactive) |
| COc1ccc(NC(=O)Nc2ccc3c(c2)C(=O)N([C@@H](C)CO)C[C@@H](C)[C@H](CN(C)C(=O)CCC(F)(F)F)OCCCC[C@@H](C)O3)cc1 | 5.29% (inactive) |
| COc1cccc(-c2ccc3c(c2)O[C@H](CN(C)C(=O)c2ccccc2F)[C@@H](C)CN([C@@H](C)CO)S3(=O)=O)c1 | 0.848% (inactive) |
| CCCNC(=O)[C@@H]1[C@@H](CO)[C@@H]2Cn3c(ccc(-c4cccc(OC)c4)c3=O)[C@H]1N2C(=O)NCCC | 4.04% (inactive) |
| C[C@H]1CN([C@@H](C)CO)C(=O)Cc2cc(NS(=O)(=O)c3ccc(Cl)cc3)ccc2O[C@H]1CN(C)S(C)(=O)=O | -4.94% (inactive) |

| Structure (SMILES) | activity score |
| --- | --- |
| Cn1nc(-c2ccccc2)c(-c2nc(-c3ccc(Cl)cc3)no2)c1Cl | -23.8% (inactive) |
| COc1cc(-c2c(-c3ccc4c(c3)OCO4)noc2C)ccc1F | -5.42% (inactive) |
| Cc1onc(-c2ccc(Cl)cc2)c1-c1ccnn1S(=O)(=O)c1ccc(Cl)cc1 | 174% (active) |
| C[C@H]1CN([C@@H](C)CO)S(=O)(=O)c2ccc(Br)cc2O[C@H]1CN(C)C(=O)C1CC1 | 11.3% (inactive) |
| CO[C@@H]1CN(C)C(=O)c2cc(NC(C)=O)ccc2OC[C@H](C)N(C(=O)Cc2ccccn2)C[C@@H]1C | -3.54% (inactive) |
| C[C@@H]1CN([C@@H](C)CO)C(=O)c2cc(NC(=O)c3ccncc3)ccc2O[C@H]1CN(C)S(=O)(=O)c1ccc(Cl)cc1 | 0.708% (inactive) |
| C[C@H]1CN([C@@H](C)CO)C(=O)c2cc(-c3ccncc3)cnc2O[C@@H]1CN(C)C(=O)C1CCCCC1 | -11.6% (inactive) |
| C[C@@H]1CN([C@H](C)CO)C(=O)c2cc(Br)cnc2O[C@@H]1CN(C)C(=O)C1CC1 | -8.5% (inactive) |
| C[C@@H]1CN([C@@H](C)CO)C(=O)c2cc(Br)cnc2O[C@@H]1CN(C)C(=O)C1CCCCC1 | 137% (active) and -1.46% (inactive) |
| CCC(=O)N(C)C[C@H]1Oc2cc(-c3cccc(C#N)c3)ccc2S(=O)(=O)N([C@@H](C)CO)C[C@@H]1C | 12.2% (inactive) |
| CCS(=O)(=O)Nc1ccc2c(c1)C(=O)N(C)[C@H]1CC[C@H](CC(=O)Nc3ccccc3)O[C@@H]1CO2 | 1.74% (inactive) |
| CC(C)NC(=O)N[C@H]1CC[C@@H](CCNC(=O)C2CCC2)O[C@@H]1CO | -11.4% (inactive) |
| COc1ccccc1-c1ccc([C@@H]2[C@@H](CO)N3CCCCN(S(=O)(=O)c4cn(C)cn4)C[C@H]23)cc1 | -0.721% (inactive) |
| COc1ccc(NC(=O)N(C)C[C@@H]2Oc3ccc(NC(=O)Cn4cnnn4)cc3C(=O)N([C@H](C)CO)C[C@@H]2C)cc1 | 2.52% (inactive) |
| O=C(N[C@H]1CC[C@H](CCNS(=O)(=O)c2ccc(F)cc2)O[C@H]1CO)c1cccnc1 | -1.19% (inactive) |
| C[C@H]1CCCCO[C@@H](CN(C)Cc2ccc3c(c2)OCO3)[C@@H](C)CN([C@@H](C)CO)C(=O)c2cc(NC(=O)Nc3ccc(F)cc3)ccc2O1 | 18.3% (inactive) |
